This is an account of results in patent publication US20020188202A1, “Method of diagnosis and treatment and related compositions and apparatus” (priority 1996, published 2002).

Each structure is given as a SMILES string. Where two headings read alike, the source gives them in different places.

Data set [1] concerns patients with MS-like syndrome associated with breast implants and cerebral vasospasm. The following applies: human, in vivo.
Data set [2] shares this test system. As to conditions: for clinical and TCD improvement: 11 patients, Toradol IM then by mouth (10 patients), Nitroglycerine by spray and patch.
Data set [3] concerns whiplash patients with cerebral vasospasm.
The mark [4] stands for this setting: sublingual spray, continuous TCD.

Consider `O=[N+]([O-])OCC(CO[N+](=O)[O-])O[N+](=O)[O-]` [Nitroglycerin], for which the nitrite sensitivity entry in data set [1] is given as “no patients are found to be nitrite sensitive”. Moreover, the “clinical and TCD improvement” value in data set [2] was “dramatic clinical improvement in exam and clinical symptoms with resolution of vasospasm”. Besides, the “symptoms of fibromyalgia and fibromyositis” value in data set [2] (all patients who started treatment) is “resolved while on therapy and returned if they stopped therapy”. Further, the “intermittent syncope and episodic hemiplegic migraines” value in data set [3] (2 patients, shortly into therapy) is “complete resolution of both of these problems”. Also, the P300 entry in data set [3] (5 patients, during the course of treatment) was “shows improvement”. Moreover, the “continued requirement of narcotics” value in data set [3] (21 of the 38 on narcotics at start) was “No patients who are able to tolerate Nitroglycerine treatment continued to require narcotics”. The clinical improvement result in data set [3] (after first administration, 38 whiplash patients) is recorded as “All patients showed clinical improvement”. Further, in data set [3] (four patients), the “symptoms of post-traumatic fibromyalgia and fibromyositis” value was “completely resolve”. Further, in data set [3] (generally no changes beyond this), the “changes in pulse or blood pressure readings” value is on record as “less than 5 points”. Further, the “failures to treatment (patients)” value in data set [3] (of 38 patients) amounted to 3. The TCD improvement in data set [3] (patients later identified as nitrite sensitive) is 3 patients did not show significant TCD improvement. Further, the “blood pressure changes including orthostatic changes” value in data set [3] (significance defined as 10 points or greater in systolic, diastolic or pulse) was “No blood pressure changes, including orthostatic changes, of significance”. In addition, the “response of single patients who are nitrite sensitive or unable to tolerate Nitroglycerine” value in data set [3] (single patients) is listed as “failed”. Besides, the “adverse reaction in single patients” value in data set [3] (single patients, listed as Nitrodur) was “one such episode is brought on”. Moreover, in data set [3] (single patients, listed as Nitroglycerine), the “adverse reaction in single patients” value is recorded as “unable to tolerate”. In data set [3] (setting [4]), the “continued relaxation of the intracranial spasm identified out to” value is “two” and the “time of peak degree of relaxation” value came out at 1 h. For the same molecule, the “time at which improvement in Mean Flow Velocities was shown” value in data set [3] (sublingual spray, continuously TCD monitored patients) was found to be 15 min.

`O=C(c1ccccc1)c1ccc2n1CCC2C(=O)O` (centres unmarked) [Toradol, ketorolac tromethamine]: the “clinical and TCD improvement” value in data set [2] is “consistent improvement clinically and with respect to the TCD”. In addition, in data set [2] (human, in vivo), the gastritis result was “gastritis developed in all cases”.
